{
  "sequences": {"note": "Chains of the proteins cited; added tags and fusions are not shown.", "UniProt P06730, whole entry": "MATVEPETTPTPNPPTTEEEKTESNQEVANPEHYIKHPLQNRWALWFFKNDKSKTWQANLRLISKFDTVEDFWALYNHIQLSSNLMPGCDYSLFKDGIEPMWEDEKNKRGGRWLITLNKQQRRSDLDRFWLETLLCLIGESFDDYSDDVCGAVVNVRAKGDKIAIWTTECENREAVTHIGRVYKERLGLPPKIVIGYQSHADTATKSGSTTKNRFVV"},
  "source": "patent US20250346630A1",
  "about": "“Engineering Peptides Using Peptide Epitope Linker Evolution” (AGENCY FOR SCIENCE, TECHNOLOGY AND RESEARCH, priority 2022, published 2025)",
  "molecules": {"B1": {"name": "VH-DIF^CAP-01 E103A: VH-DiF^CAP-01 with point mutation E103A, binding control (antibody, V domains shown)", "VH": "MSEVQLVESGGGLVQPGGSLRLSSAISGFSISSTSIDWVRQAPGKGLEWVARISPSSGSTSYADSVKGRFTISADTSKNTVYLQMNSLRAEDTAVYYTGRPLPAMGFFTNIPAMVDYRGQGTLVTVSSGAA"}},
  "molecular_target": "T1, LgBiT-eIF4E:SmBiT-VH-DIF^CAP-01 interaction (eIF4E cap-binding site) (Homo sapiens, UniProt P06730)",
  "T1 construct": "expressed in transfected cells; host or cells: HEK293",
  "experiment": "NanoBIT^CAP complementation assay in HEK293 cells",
  "type": "cell-based",
  "settings": "live HEK293 cells",
  "data": [
    {"molecule": "B1", "values": [
      {"measurement": "luciferase signal of SmBiT-fused construct co-transfected with LgBiT-eIF4E", "result": "abrogation of the luciferase signal above background"}
    ]}
  ]
}
